pKi: −log10 of the molar value.

Protein sequences, listed by entry. Tags and fused reporters are not part of them. Lines headed by an entry give the natural chain unless they say otherwise; changes in a name come on top. Residues count along the entry.
UniProt P20309, whole entry, looked up, stated change not applied: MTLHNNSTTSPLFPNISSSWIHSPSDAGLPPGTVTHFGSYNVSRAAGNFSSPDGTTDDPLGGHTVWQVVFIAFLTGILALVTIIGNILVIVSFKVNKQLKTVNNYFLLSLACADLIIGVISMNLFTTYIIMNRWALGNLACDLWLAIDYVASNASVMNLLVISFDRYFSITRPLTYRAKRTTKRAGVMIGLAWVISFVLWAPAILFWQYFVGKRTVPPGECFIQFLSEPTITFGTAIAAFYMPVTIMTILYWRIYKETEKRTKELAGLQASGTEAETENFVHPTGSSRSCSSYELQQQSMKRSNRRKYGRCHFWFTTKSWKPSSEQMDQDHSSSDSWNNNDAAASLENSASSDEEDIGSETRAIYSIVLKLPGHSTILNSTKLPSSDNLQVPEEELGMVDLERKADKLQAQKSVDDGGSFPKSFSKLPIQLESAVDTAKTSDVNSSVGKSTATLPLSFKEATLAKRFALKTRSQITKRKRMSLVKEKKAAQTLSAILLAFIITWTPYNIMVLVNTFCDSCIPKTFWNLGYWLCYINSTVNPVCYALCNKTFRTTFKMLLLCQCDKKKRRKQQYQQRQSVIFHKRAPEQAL
UniProt P20309, 483-590 limits assumed: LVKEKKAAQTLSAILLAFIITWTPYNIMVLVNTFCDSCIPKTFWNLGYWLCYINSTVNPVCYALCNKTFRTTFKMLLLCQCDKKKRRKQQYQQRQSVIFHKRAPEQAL
UniProt P20309, 1-260 limits assumed: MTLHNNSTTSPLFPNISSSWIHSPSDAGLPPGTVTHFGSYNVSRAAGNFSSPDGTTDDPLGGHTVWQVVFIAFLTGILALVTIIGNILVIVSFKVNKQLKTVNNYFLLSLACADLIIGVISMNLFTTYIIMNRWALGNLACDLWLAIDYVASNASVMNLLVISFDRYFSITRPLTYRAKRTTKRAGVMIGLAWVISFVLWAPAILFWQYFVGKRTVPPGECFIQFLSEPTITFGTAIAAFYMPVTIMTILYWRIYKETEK
UniProt P11229: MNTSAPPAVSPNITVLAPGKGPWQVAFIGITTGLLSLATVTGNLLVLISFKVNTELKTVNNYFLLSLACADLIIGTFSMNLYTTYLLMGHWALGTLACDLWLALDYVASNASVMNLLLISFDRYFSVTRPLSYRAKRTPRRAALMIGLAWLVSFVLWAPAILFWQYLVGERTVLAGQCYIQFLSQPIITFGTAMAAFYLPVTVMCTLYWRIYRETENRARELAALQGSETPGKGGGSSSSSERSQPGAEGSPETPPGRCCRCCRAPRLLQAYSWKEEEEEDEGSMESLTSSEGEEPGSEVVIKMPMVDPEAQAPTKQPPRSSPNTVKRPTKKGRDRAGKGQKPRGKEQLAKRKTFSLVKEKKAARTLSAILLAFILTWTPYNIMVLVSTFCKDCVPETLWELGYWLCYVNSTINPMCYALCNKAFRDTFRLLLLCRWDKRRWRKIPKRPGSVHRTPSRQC
UniProt P08173, whole entry, looked up: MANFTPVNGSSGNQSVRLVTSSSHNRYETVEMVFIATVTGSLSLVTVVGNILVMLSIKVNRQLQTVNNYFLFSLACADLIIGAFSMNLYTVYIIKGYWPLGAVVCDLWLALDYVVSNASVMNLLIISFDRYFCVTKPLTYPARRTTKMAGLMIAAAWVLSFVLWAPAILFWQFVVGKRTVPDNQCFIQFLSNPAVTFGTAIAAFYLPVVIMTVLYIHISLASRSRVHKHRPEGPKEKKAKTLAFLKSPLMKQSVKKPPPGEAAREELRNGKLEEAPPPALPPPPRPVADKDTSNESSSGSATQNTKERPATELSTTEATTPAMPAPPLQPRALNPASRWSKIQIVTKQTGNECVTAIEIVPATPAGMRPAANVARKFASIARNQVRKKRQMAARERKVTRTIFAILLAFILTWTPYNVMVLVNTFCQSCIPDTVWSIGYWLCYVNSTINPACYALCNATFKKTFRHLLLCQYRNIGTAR
UniProt P08912, whole entry, looked up: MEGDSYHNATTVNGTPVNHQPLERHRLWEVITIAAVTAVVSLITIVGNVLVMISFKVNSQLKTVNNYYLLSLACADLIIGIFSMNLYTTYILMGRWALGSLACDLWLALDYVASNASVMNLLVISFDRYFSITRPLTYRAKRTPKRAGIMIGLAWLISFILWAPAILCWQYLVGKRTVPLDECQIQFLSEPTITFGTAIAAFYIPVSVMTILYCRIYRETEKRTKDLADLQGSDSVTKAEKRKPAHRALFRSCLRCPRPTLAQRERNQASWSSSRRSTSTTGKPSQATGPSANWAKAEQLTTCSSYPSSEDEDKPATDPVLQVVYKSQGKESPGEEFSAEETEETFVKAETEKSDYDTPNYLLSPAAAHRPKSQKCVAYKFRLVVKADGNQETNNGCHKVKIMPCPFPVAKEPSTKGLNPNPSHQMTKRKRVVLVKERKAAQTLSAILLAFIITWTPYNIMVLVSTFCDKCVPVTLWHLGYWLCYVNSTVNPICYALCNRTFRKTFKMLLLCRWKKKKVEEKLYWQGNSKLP

Assay [1] relates to airway resistance, an M3R-mediated response. Kind of assay: Methacholine-induced airway resistance in anaesthetized mice. The settings on record: i.v. methacholine, range for individual mice.
Assay [2] has as its system heart rate, an M2R-mediated response. Kind of assay: Methacholine-induced heart rate response in anaesthetized mice.
The target in a further assay is hM3R-Δi3 (Homo sapiens, UniProt P20309). Kind of assay: Equilibrium [3H]-NMS competition binding, M3R. The settings on record: read-out: affinity in equilibrium binding (M3R); may be affected by ligand depletion.
Another assay addresses hM1R (Homo sapiens, UniProt P11229). Kind of assay: Equilibrium [3H]-NMS competition binding, M1R. The settings on record: read-out: M1R Ki.
The next assay deals with hM4R (Homo sapiens, UniProt P08173). Kind of assay: Equilibrium [3H]-NMS competition binding, M4R. The settings on record: read-out: M4R Ki.
In the next assay the target is hM5R (Homo sapiens, UniProt P08912). Kind of assay: Equilibrium [3H]-NMS competition binding, M5R. The note with it: read-out: M5R Ki.
The target of assay [3] is T1, M3R (Homo sapiens, UniProt P20309). Kind of assay: Competition association binding kinetics with [3H]-NMS.
Assay [4] deals with T1, M3R. Kind of assay: IP accumulation (IP-One HTRF), carbachol-stimulated HEK-293 cells. The settings on record: data not shown.
Assay [5] addresses T1, M3R. Kind of assay: β-arrestin-2 recruitment (PathHunter), carbachol-stimulated HEK-293 cells. The note with it: data not shown.

In the case of `CC(=O)OC(C)C[N+](C)(C)C` (stereo not drawn), the “increase of airway resistance” value in assay [1] lay in the range of 25.3 to 87.6%. In assay [2] (i.v. methacholine, range for individual mice), the “reduction of heart rate” value is −13.6 to −22.7%.
As for `O=C(Nc1ccc(F)cc1-c1ccccc1)OC1CN2CCC1CC2` (stereo not drawn), the “mean heart rate response to methacholine after pretreatment” value in assay [2] (pretreatment 1 * 10^−7 mol/kg vs saline, then methacholine) is “no significant difference”.
Regarding `C[N+]1(C)C2CC(OC(=O)Nc3ccc(F)cc3-c3cccs3)CC1C1OC12` (stereo not drawn), the pKi was 10.57 at hM3R-Δi3, 10.96 at hM1R, 11.05 on hM4R and 10.33 on hM5R. For the same molecule, the “Kd from association and dissociation rates” value on M3R [3] (M3R membranes) turned out to be 0.012 nM. At M3R [3] (M3R, room temperature), the dissociation half-life amounted to 14.8 h. Further, at M3R [3] (from association/dissociation rates), the “preference for M3R over M2R (kinetic Kd)” value came to 33 fold. In addition, on M3R [4], the “agonist properties, IP accumulation” value was “no agonist properties”. Besides, at M3R [5], the “agonist properties, β-arrestin recruitment” value is given as “no agonist properties”.

Values taken from publication PMC6255194, “Structure-guided development of selective M3 muscarinic acetylcholine receptor antagonists” (2018).
